Laboratory results from US20230393125A1.

Tests used:
human C5 (human) [1] = target: human C5 (human) (UniProt P01031); assay: Gyrolab free-antigen assay in 100% serum (human serum 1:40 in horse serum); serum ID 2; 2000 ng/mL antibody
human C5 (human) [2] = target: human C5 (human) (UniProt P01031); assay: Gyrolab free-antigen assay in 100% serum (human serum 1:40 in horse serum); serum ID 3; 3000 ng/mL antibody
human C5 (human) [3] = target: human C5 (human) (UniProt P01031); assay: Gyrolab free-antigen assay; undiluted human serum ID2 + 100 µg/mL Crovalimab
human C5 (human) [4] = target: human C5 (human) (UniProt P01031); assay: Gyrolab free-antigen assay in 100% serum; serum ID 1; average of five antibody concentrations
human C5 (human) [5] = target: human C5 (human) (UniProt P01031); assay: Gyrolab free-antigen assay; undiluted human serum ID1 + 100 µg/mL Crovalimab
human C5 (human) [6] = target: human C5 (human) (UniProt P01031); assay: Gyrolab free-antigen assay in 100% serum (human serum 1:40 in horse serum); serum ID 1; 4000 ng/mL antibody
human C5 (human) [7] = target: human C5 (human) (UniProt P01031); assay: Gyrolab free-antigen assay in 100% serum (human serum 1:40 in horse serum); serum ID 1; 1000 ng/mL antibody
human C5 (human) [8] = target: human C5 (human) (UniProt P01031); assay: Gyrolab free-antigen assay in 100% serum (human serum 1:40 in horse serum); serum ID 1; 2000 ng/mL antibody
human C5 (human) [9] = target: human C5 (human) (UniProt P01031); assay: Gyrolab free-antigen assay in 100% serum (human serum 1:40 in horse serum); serum ID 1; 3000 ng/mL antibody
human C5 (human) [10] = target: human C5 (human) (UniProt P01031); assay: Gyrolab free-antigen assay in 100% serum (human serum 1:40 in horse serum); serum ID 3; 5000 ng/mL antibody
human C5 (human) [11] = target: human C5 (human) (UniProt P01031); assay: Gyrolab free-antigen assay in 100% serum; serum ID 3; average of five antibody concentrations
human C5 (human) [12] = target: human C5 (human) (UniProt P01031); assay: Gyrolab free-antigen assay in 100% serum (human serum 1:40 in horse serum); serum ID 3; 2000 ng/mL antibody
human C5 (human) [13] = target: human C5 (human) (UniProt P01031); assay: Gyrolab free-antigen assay in 100% serum (human serum 1:40 in horse serum); serum ID 3; 1000 ng/mL antibody
human C5 (human) [14] = target: human C5 (human) (UniProt P01031); assay: Gyrolab free-antigen assay in 100% serum (human serum 1:40 in horse serum); serum ID 1; 5000 ng/mL antibody
human C5 (human) [15] = target: human C5 (human) (UniProt P01031); assay: Gyrolab free-antigen assay in 100% serum; average over all sera; standard deviation 0.012 nM
human C5 (human) [16] = target: human C5 (human) (UniProt P01031); assay: Gyrolab free-antigen assay in 100% serum; serum ID 2; average of five antibody concentrations
human C5 (human) [17] = target: human C5 (human) (UniProt P01031); assay: Gyrolab free-antigen assay in 100% serum (human serum 1:40 in horse serum); serum ID 3; 4000 ng/mL antibody
human C5 (human) [18] = target: human C5 (human) (UniProt P01031); assay: Gyrolab free-antigen assay in 100% serum (human serum 1:40 in horse serum); serum ID 2; 3000 ng/mL antibody
human C5 (human) [19] = target: human C5 (human) (UniProt P01031); assay: Gyrolab free-antigen assay in 100% serum (human serum 1:40 in horse serum); serum ID 2; 1000 ng/mL antibody
human C5 (human) [20] = target: human C5 (human) (UniProt P01031); assay: Gyrolab free-antigen assay in 100% serum (human serum 1:40 in horse serum); serum ID 2; 5000 ng/mL antibody
human C5 (human) [21] = target: human C5 (human) (UniProt P01031); assay: Gyrolab free-antigen assay in 100% serum (human serum 1:40 in horse serum); serum ID 2; 4000 ng/mL antibody
human C5 (human) [22] = target: human C5 (human) (UniProt P01031); assay: Gyrolab free-antigen assay; undiluted human serum ID3 + 100 µg/mL Crovalimab

Crovalimab (antibody)
Kd (human C5 (human) [1]): 0.04 nM | Kd (human C5 (human) [2]): 0.042 nM | free target concentration (human C5 (human) [3]): 8.2 ng/mL | Kd (human C5 (human) [4]): 0.047 nM | free target concentration (human C5 (human) [5]): 6.5 ng/mL | Kd (human C5 (human) [6]): 0.046 nM | Kd (human C5 (human) [7]): 0.046 nM | Kd (human C5 (human) [8]): 0.036 nM | Kd (human C5 (human) [9]): 0.056 nM | Kd (human C5 (human) [10]): 0.048 nM | Kd (human C5 (human) [11]): 0.048 nM | Kd (human C5 (human) [12]): 0.039 nM | Kd (human C5 (human) [13]): 0.06 nM | Kd (human C5 (human) [14]): 0.049 nM | Kd (human C5 (human) [15]): 0.05 nM | Kd (human C5 (human) [16]): 0.054 nM | Kd (human C5 (human) [17]): 0.051 nM | Kd (human C5 (human) [18]): 0.041 nM | Kd (human C5 (human) [19]): 0.072 nM | Kd (human C5 (human) [20]): 0.076 nM | Kd (human C5 (human) [21]): 0.043 nM | free target concentration (human C5 (human) [22]): 7.6 ng/mL
